Results: US11448657B2, “Methods and kits for assessing Heparanase procoagulant activity, compositions comprising Heparanase, and methods for the treatment of coagulation-related disorders” (RAMBAM MED-TECH, priority 2011, dated 2022)

Assay: Water solubility of the peptides
Assay type: physicochemical

For “Ac-Ile Cys Leu Leu Pro Leu Asp Tyr Gly Pro Cys Arg Ala Leu (ICLLPLDYGPCRAL; N-terminal acetyl; ACT_SITE (1)..(1)) [Peptide 5-Ac]”, the “water solubility compared to non-acetylated counterpart” value was “more water soluble than their corresponding non acetylated counterparts”.
